Assay results reported in patent publication US10125116B2, “Compounds and methods for treating mammalian gastrointestinal microbial infections” (Brandeis University, priority 2009, dated 2018).

Target: human type II IMPDH (Homo sapiens, UniProt P12268)
Assay: human IMPDH type II selectivity assay
Settings: read-out: IC50 human IMPDH-II

## COc1ccc(NC(=O)Cn2c(-c3cscn3)nc3ccccc32)cc1
  IC50: > 50 µM
